Results taken from patent US5516797A, “Immunosuppressive compounds” (Vertex Pharmaceuticals, Incorporated, priority 1994, dated 1996).

Sequences of proteins named here, by UniProt entry; tags and fusion partners are left off.
UniProt P62942, whole entry: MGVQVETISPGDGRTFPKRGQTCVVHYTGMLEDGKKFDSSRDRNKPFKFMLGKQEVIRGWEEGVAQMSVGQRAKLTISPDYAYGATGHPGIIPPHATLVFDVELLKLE

Biological target: FK-506 binding protein (FKBP) (Homo sapiens, UniProt P62942)
Assay: Competitive binding to FKBP against [3H]dihydro-FK-506 (apparent Kd)
Conditions: competition with [3H]dihydro-FK-506
Excerpt: Human FK-506 binding protein can be obtained as described by Harding, M. W. et al., Nature 341:758-760 (1989). Values for the apparent Kd can be determined from a competitive LH-20 binding assay performed as described by Harding et al., using 32-[1-^14 C]-benzoyl FK-506 as a reporting ligand; or using [^3 H]dihydro-FK-506, as described by Siekierka, J. J. et al., Nature 341:755-757 (1989). The data was obtained using the latter method, where the ability of an unlabeled compound to compete with the binding of [^3 H]dihydro-FK-506to FK-506 binding protein was measured.

| SMILES | Kd [nM] |
| --- | --- |
| COC(=O)C(=O)N1CCCC[C@H]1C(=O)OCCCCC1CCCCC1 [Compound 34] | 2000 to 3000 |
| COc1cc(C(=O)C(=O)N2CCCC[C@H]2C(=O)OCc2cccc(Oc3ccccc3)c2)cc(OC)c1OC [Compound 61] | 35 |
| COc1cc(C(=O)C(=O)N2CCCC[C@H]2C(=O)OCCCCC2CCCCC2)cc(OC)c1OC [Compound 57] | 100 |
| COc1cc(C(=O)C(=O)N2CCCC[C@H]2C(=O)OCCCc2c[nH]c3ccccc23)cc(OC)c1OC [Compound 84] | 54 |
